The text below walks through data of patent US9650334B2 (AbbVie Deutschland GmbH & Co. KG, priority 2013, dated 2017).

Each structure is given as a SMILES string.

The target in this experiment is T1, human GlyT1c transporter (Homo sapiens, UniProt P48067).
T1 sequence (P48067 1-706): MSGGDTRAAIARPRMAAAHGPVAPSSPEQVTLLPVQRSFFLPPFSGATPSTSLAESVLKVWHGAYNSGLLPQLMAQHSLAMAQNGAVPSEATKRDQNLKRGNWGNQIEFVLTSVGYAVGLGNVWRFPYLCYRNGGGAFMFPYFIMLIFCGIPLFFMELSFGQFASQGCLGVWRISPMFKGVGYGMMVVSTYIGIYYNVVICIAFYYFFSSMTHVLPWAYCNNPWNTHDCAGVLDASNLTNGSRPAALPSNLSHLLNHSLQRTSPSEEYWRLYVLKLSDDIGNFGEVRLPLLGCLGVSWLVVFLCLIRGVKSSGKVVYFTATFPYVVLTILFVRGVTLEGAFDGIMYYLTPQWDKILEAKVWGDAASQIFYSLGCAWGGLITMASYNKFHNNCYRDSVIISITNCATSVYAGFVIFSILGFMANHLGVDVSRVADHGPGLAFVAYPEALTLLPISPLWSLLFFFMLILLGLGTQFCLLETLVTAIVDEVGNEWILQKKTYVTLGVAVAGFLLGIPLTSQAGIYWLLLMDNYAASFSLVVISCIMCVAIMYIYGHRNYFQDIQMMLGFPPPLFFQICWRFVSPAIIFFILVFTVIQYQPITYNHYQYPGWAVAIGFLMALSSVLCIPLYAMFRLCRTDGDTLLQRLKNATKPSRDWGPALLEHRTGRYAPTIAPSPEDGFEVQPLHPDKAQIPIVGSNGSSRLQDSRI
The experiment can be described thus: Radioligand binding assays using recombinant CHO cell membranes expressing human GlyT1. Particulars: radioligand binding to human GlyT1c transporter-expressing CHO cell membranes.

With `Cn1cnc(S(=O)(=O)N2C[C@@H](Nc3ccc(C#N)c(Cl)c3)[C@H](c3ccc(F)cc3)C2)c1` (relative stereo) [Example 341, 2-chloro-4-({trans-4-(4-fluorophenyl)-1-[(1-methyl-1H-imidazol-4-yl)sulfonyl]pyrrolidin-3-yl}amino)benzonitrile], the inhibition constant (Ki) (as a rule, a measure of affinity in units of concentration, obtained from inhibition or displacement) was ≤ 10 µM.
